Test results reported in PubChem BioAssay AID434978 (Johns Hopkins Ion Channel Center, 2010).
The list shows a part of the results, in another mix than the full data. Activity calls are given as the source filed them.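 The calls were made as follows: active = primary screen active whose calcium signal fell more than 3 SD beyond the full-serotonin control mean in both duplicate plates; inactive = the rest.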

Assay: calcium flux inhibitors in TRPC4/5HT1a cells, confirmation, counter-screen for TRPC4 inhibitor project, cell-based, second counter screen, HEK293 TRPC4/5HT1a, Fluo-4 (AID 434978)
Conditions: Fluo-4 calcium flux, at 10 µM, active compounds read high, serotonin added to trigger calcium flux
In the case of `CN(C)C1(CNC(=O)c2ccc(Cl)c(S(N)(=O)=O)c2)CCCCC1`, the inhibition is reported as inactive: 0%.
